The source of these data is ChEMBL document CHEMBL3297733, “Discovery and optimization of pyrrolo[1,2-a]pyrazinones leads to novel and selective inhibitors of PIM kinases” (Bioorg Med Chem, 2013).

Sequences of proteins named here, by UniProt entry; tags and fusion partners are left off. A change or cut given only in a name is not applied to a line headed by its entry.
UniProt Q9P1W9: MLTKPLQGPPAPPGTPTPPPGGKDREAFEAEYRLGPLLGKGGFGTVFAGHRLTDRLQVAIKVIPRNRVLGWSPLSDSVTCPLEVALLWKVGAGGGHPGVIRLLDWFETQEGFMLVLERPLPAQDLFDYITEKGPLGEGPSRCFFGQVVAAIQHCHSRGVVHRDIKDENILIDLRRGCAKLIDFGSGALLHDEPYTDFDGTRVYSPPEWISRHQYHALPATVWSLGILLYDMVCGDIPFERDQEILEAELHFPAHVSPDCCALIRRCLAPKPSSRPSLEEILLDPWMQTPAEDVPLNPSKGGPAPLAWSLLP

pIC50: −log10 of the molar value.

The target in this assay is Serine/threonine-protein kinase pim-2 (Homo sapiens, UniProt Q9P1W9). The assay is described as follows: Inhibition of human PIM2 using ARK-RERTYSFGHHA as substrate incubated for 60 mins prior to substrate addition by topcount scintillation counting analysis in presence of [P33gamma]-ATP.
Usually pIC50 stands for the negative decadic logarithm of the IC50, by convention in mol/L. `O=C(C[C@H]1CNC(=O)c2cc(-c3cccc(F)c3)cn21)N[C@H](CO)Cc1ccccc1`: the pIC50 was 6.16.

For the molecule `CN1CCN(C(=O)C[C@H]2CNC(=O)c3cc(-c4cccc(F)c4)cn32)[C@@H](c2ccccc2)C1`, the pIC50 is 6.02.

On to `NC[C@@H](NC(=O)C[C@H]1CNC(=O)c2cc(-c3ccnc(F)c3)cn21)c1ccccc1`, for which the negative logarithm of the IC50 (pIC50) is 7.01.

Take `NC[C@@H](NC(=O)C[C@@H]1CNC(=O)c2cc(-c3ccnc(F)c3)cn21)c1ccccc1`: the pIC50 is 6.30.

Consider `NC[C@@H](NC(=O)C[C@H]1CNC(=O)c2cc(-c3cccc(F)c3)cn21)c1ccccc1`, for which the pIC50 is 6.74.

As for `O=C(C[C@H]1CNC(=O)c2cc(-c3cccc(F)c3)cn21)N[C@H](CO)C1CCCCC1`, the pIC50 was 6.60.

For `O=C(C[C@H]1CNC(=O)c2cc(-c3cccc(F)c3)cn21)N[C@H](CO)c1ccccc1`, the pIC50 is 6.29.

`O=C(CC1CNC(=O)c2cc(-c3cccc(C(F)(F)F)c3)cn21)NCC1CCCCC1` (racemic): the pIC50 is less than 5.30.

Turning to `O=C(CC1CNC(=O)c2cc(-c3ccc(F)c(F)c3)cn21)NCc1ccco1` (racemic), the pIC50 is 5.65.
